## AlphaSeq binding of Ab-14 light chain variants to a spike HR2 peptide

Data: MIT Lincoln Laboratory AlphaSeq set, Li et al. 2023, doi:10.1038/s41467-023-39022-2, as distributed in FLAb.

All variants were tested on one target, the spike HR2 peptide PDVDLGDISGINAS (SARS-CoV-2).

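The parent was found by panning a naive human phage display library on the peptide. Designed CDR sequences, proposed from the first random library and measured here. Several design methods are mixed in this list. The assay is AlphaSeq: two haploid yeast populations carry antibody and antigen on their surface. The frequency of each diploid, read from paired DNA barcodes, reflects how well the two displayed proteins bind. Each replicate has its own calibration line, from reference interactions of the BCL2 family. Mating was done six times.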

Parent scFv Ab-14: VH joined to VL by three GGGGS repeats. Changes lie in the light chain CDRs alone.
VH: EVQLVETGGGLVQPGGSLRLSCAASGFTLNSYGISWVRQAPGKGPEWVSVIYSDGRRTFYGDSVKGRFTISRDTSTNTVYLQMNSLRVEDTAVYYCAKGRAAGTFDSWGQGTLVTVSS
VL: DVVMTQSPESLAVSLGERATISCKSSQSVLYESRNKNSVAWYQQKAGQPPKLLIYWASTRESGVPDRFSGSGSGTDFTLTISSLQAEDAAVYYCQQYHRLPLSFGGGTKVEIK

Each variant is given by its three light chain CDRs, as the data file delimits them; those of the parent are KSSQSVLYESRNKNSVA, WASTRES, QQYHRLPLS. Variants here have at most six changes. Each Kd is an estimate from the mating assay, the geometric mean of the replicates in which the pair was seen; lower is stronger.

* KSSQSVLKESANKNSVA | GASTRES | QYYHRLPLS: 8.5 nM (6 of 6 replicates)
* KLQQSVLYESRNWNSVA | NASTRES | QQYHRLPLS: 470 pM (6 of 6 replicates)
* KLSQSEGYESRNKNSVA | NASTRMS | QQYHRLPLS: 730 pM (6 of 6 replicates)
* KSSQSWIGESRNKNSVA | HGSTRES | QQYHRLPLS: 7.3 nM (5 of 6 replicates)
* KLSQSELYESRNKNSVA | EANTRES | QQYHRLPLS: 670 pM (6 of 6 replicates)
* KSSQSVLFESNNPNSVA | WASTRES | QQYHRLPLS: 120 nM (4 of 6 replicates)
* KVSGSYLLESRNKNSVA | EARTRES | QQYHRLPLS: 690 pM (6 of 6 replicates)
* KFSQSVLYESRNWNSVA | NASTRES | QQYHRLPLS: 1.1 nM (6 of 6 replicates)
* QYSQSVLYESRNKNSVA | DANTRES | QQYHRLPLS: 1.0 nM (6 of 6 replicates)
* KLAQSTLYESRNKNSVA | WASTRLS | QQYHRLPLS: 5.3 nM (5 of 6 replicates)
* KMPQSWLYESRNKNSVA | NASTRES | QQYHRLPLS: 670 pM (6 of 6 replicates)
* KLSQSYLYESRNKNSVA | EASTRES | QQYHRLPLS: 1.4 nM (6 of 6 replicates)
* KSSQSVLYESRNKNSVA | EASTRIS | QQYHRLPLS: 2.0 nM (6 of 6 replicates)
* KSSQSQLYESRNDNSVA | TASTRNS | QQYHRLPLS: 310 nM (4 of 6 replicates)
* KVSQSVLYESRNKNSVA | YASTRCS | QCYHRLPLS: 340 nM (5 of 6 replicates)
* KSSQSVLMESLNKNSVA | GASTRES | QQYNRLPLS: 1.1 nM (6 of 6 replicates)
* KSSQSVLYESRNKQSVA | NASTRES | QQYHRLPLS: 7.6 nM (6 of 6 replicates)
* KSSWSVLFESRNKNSVA | DASTRCS | QQYHRLPLS: 1.7 nM (6 of 6 replicates)
* KSGQGVLYESRNKNSVA | GASLRES | QQYHRLPLS: 940 pM (6 of 6 replicates)
* KSSQSVLYESRNKNSVA | AASTRES | QQYNRLPLS: 2.8 nM (6 of 6 replicates)
* KVSQSTLYEDRNKNSVA | NASVRSS | QQYHRLPLS: 220 pM (6 of 6 replicates)
* KLVQSVLYESRNKNSVA | NASQRES | QQYHRLPLS: 440 pM (6 of 6 replicates)
* KSSQSNLNEDRNKNSVA | SASTRES | QQYHRLPLS: 3.5 nM (6 of 6 replicates)
* VLSQSVLDESRNKHSVA | EASTQES | QQYHRLPLS: 2.0 nM (6 of 6 replicates)
* KMSKSVPDESRNKNSVA | GASTRSS | QQYHRLPLS: 1.2 nM (6 of 6 replicates)
* KLSQSHLYESRMKNSVA | DASTRES | QQYHRLPLS: 400 pM (6 of 6 replicates)
* HSSPSVLYESRNKNSVA | NASTREE | QQYHRLPLS: 1.4 nM (6 of 6 replicates)
* KSSQAVLMESRNKNSVA | WGSTRES | QQYHRLPLS: 41 nM (6 of 6 replicates)
* KISQSSLYESRNKNSVA | WASTREG | QQYHQQPLS: 5.2 nM (6 of 6 replicates)
* KLSQSVLFESRNKNSVA | NASTRES | QQYHRLPLS: 320 pM (6 of 6 replicates)
* KLSQSVLYESRNANNVA | DASTRES | QQYHRLPLS: 320 pM (6 of 6 replicates)
* KSDQSYLYESREKNSVA | WASTRES | QQYHRLPLS: 64 nM (4 of 6 replicates)
* KSSQSVLYESRNKNSVA | WASTRES | QQYDRLPLS: 420 nM (5 of 6 replicates)
* KVSQSELYESRNKNSVA | EASLRES | QQYHRLPLS: 2.8 nM (6 of 6 replicates)
* KSLQSVPYESRNFNSVA | HASTRED | QQYHRLPLS: 1.7 nM (6 of 6 replicates)
* KLSQSWLYESRNKNNVA | EASTRES | QQYHRLPLS: 760 pM (6 of 6 replicates)
* KGSQSVLYDSRNKNSVA | WASTRES | QQYHRLPLS: 230 nM (3 of 6 replicates)
* KSSQSELYESRNFWSVA | NASTRES | QQYHRLPLS: 4.3 nM (6 of 6 replicates)
* HSSPSVLYESRNKNNVA | NASTREQ | QQYHRLPLS: 17 nM (6 of 6 replicates)
* KLWQSVLYESRNKNSVA | NASTRMS | QQYHRLPLS: 1.6 nM (6 of 6 replicates)
* KSSQAVLYESRNKGSVA | AASTRES | QQYHRLPWS: 4.7 µM (2 of 6 replicates)
* KSEMSVYYGERNKNSVA | QASTRES | QQYHRLPLS: 3.5 nM (6 of 6 replicates)
* KSSQSVLPQSRNHNSVA | DASTRES | QQYHRLPLS: 1.6 nM (6 of 6 replicates)
* KSSQSVLYESRNKNSVA | WASHRES | QQYHRLPLS: 110 nM (6 of 6 replicates)
* KVSQSVPYESRNKNSVA | NASQRES | QQYHRLPLS: 3.1 nM (6 of 6 replicates)
* KLSQSVLYESRNKNSVA | EASHRES | QQYHRLPLS: 680 pM (6 of 6 replicates)
* KHSQSVDYESRNKASVA | DASTRMS | QQYHRLPLS: 800 pM (6 of 6 replicates)
* KSSQSVFYESRNVNSVA | HASTRMS | QAYHRFPLS: 280 nM (5 of 6 replicates)
* KSSISYLYESGNTNSVA | EASTRES | QQYHRLPLS: 3.1 nM (6 of 6 replicates)
* KSSQSELDESRNPNSVA | WASTRES | QQYHRLPLS: 8.0 nM (6 of 6 replicates)
* KLSQSVLYESRNKNSVA | NASTRVS | QQYHRLPLS: 1.6 nM (6 of 6 replicates)
* KSSQAVEYESENKNSVA | AASKRAS | QQYHRLPLS: 1.8 nM (6 of 6 replicates)

A selection of 7 entries from above:

CDR-L1,CDR-L2,CDR-L3,Kd (apparent),replicates with signal
KSSQSWIGESRNKNSVA,HGSTRES,QQYHRLPLS,7.3 nM,5/6
HSSPSVLYESRNKNSVA,NASTREE,QQYHRLPLS,1.4 nM,6/6
KSSQSELDESRNPNSVA,WASTRES,QQYHRLPLS,8.0 nM,6/6
KSSQSVLPQSRNHNSVA,DASTRES,QQYHRLPLS,1.6 nM,6/6
KSEMSVYYGERNKNSVA,QASTRES,QQYHRLPLS,3.5 nM,6/6
KSSQSVLYESRNKNSVA,WASHRES,QQYHRLPLS,110 nM,6/6
KSSQSNLNEDRNKNSVA,SASTRES,QQYHRLPLS,3.5 nM,6/6

The parent sequence was in this pool as ten entries: three were never detected, three once, and four in most replicates, with averages from 2.2 nM to 240 nM. The range of this assay differs from that of the first round, and the authors advise against merging the two. In the paper, a design with two or fewer of six values counts as a poor binder. Background: pairings of all light chain designs with three empty control strains gave a value in 4% of cases (median 430 nM, 5th percentile 38 nM). Values in that range, when seen in few replicates, are hard to tell from nonspecific mating.